Source: PubChem BioAssay (NCI)
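Interpolation was linear, between the two tested concentrations surrounding the appropriate level; five concentrations were tested over 48 hours in 96-well plates. GI50: concentration for 50% inhibition of growth. TGI denotes the concentration required for complete inhibition of growth.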

Legend:
Experiment in all cases: NCI anticancer screen, dose series, 48 h
OVCAR-3 ovarian = tested on: OVCAR-3 ovarian
786-0 renal = tested on: 786-0 renal
DU-145 prostate = tested on: DU-145 prostate
U251 CNS = tested on: U251 CNS
UACC-62 melanoma = tested on: UACC-62 melanoma
HL-60(TB) leukemia = tested on: HL-60(TB) leukemia
SW-620 colon = tested on: SW-620 colon
PC-3 prostate = tested on: PC-3 prostate
A498 renal = tested on: A498 renal
A549 NSCLC = tested on: A549 NSCLC
MDA-MB-435 = tested on: MDA-MB-435
HCT-15 colon = tested on: HCT-15 colon
UO-31 renal = tested on: UO-31 renal
IGROV1 ovarian = tested on: IGROV1 ovarian
OVCAR-4 ovarian = tested on: OVCAR-4 ovarian
M14 melanoma = tested on: M14 melanoma
SR leukemia = tested on: SR leukemia
OVCAR-8 ovarian = tested on: OVCAR-8 ovarian
MOLT-4 leukemia = tested on: MOLT-4 leukemia
NCI-H226 lung = tested on: NCI-H226 lung
ACHN renal = tested on: ACHN renal
K-562 leukemia = tested on: K-562 leukemia
RXF 393 renal = tested on: RXF 393 renal
HT29 colon = tested on: HT29 colon
COLO 205 colon = tested on: COLO 205 colon
CAKI-1 renal = tested on: CAKI-1 renal
SF-539 CNS = tested on: SF-539 CNS
TK-10 renal = tested on: TK-10 renal
UACC-257 melanoma = tested on: UACC-257 melanoma
SK-MEL-28 melanoma = tested on: SK-MEL-28 melanoma
SNB-19 CNS = tested on: SNB-19 CNS
NCI-H322M lung = tested on: NCI-H322M lung
SK-OV-3 ovarian = tested on: SK-OV-3 ovarian
HCT-116 colon = tested on: HCT-116 colon
NCI-H460 lung = tested on: NCI-H460 lung
SK-MEL-5 melanoma = tested on: SK-MEL-5 melanoma
SF-295 CNS = tested on: SF-295 CNS
LOX IMVI melanoma = tested on: LOX IMVI melanoma
HOP-92 NSCLC = tested on: HOP-92 NSCLC
SNB-75 CNS = tested on: SNB-75 CNS
MDA-N = tested on: MDA-N
EKVX NSCLC = tested on: EKVX NSCLC
MCF7 breast = tested on: MCF7 breast
NCI/ADR-RES ovarian = tested on: NCI/ADR-RES ovarian
MDA-MB-231 breast = tested on: MDA-MB-231 breast
SK-MEL-2 melanoma = tested on: SK-MEL-2 melanoma
OVCAR-5 ovarian = tested on: OVCAR-5 ovarian
SN12C renal = tested on: SN12C renal
KM12 colon = tested on: KM12 colon
CCRF-CEM leukemia = tested on: CCRF-CEM leukemia

`O=[N+]([O-])c1nc(-c2nc([N+](=O)[O-])c([N+](=O)[O-])[nH]2)[nH]c1[N+](=O)[O-]` showed a GI50 (OVCAR-3 ovarian) of over 100 µM, a TGI (OVCAR-3 ovarian) of over 100 µM and a GI50 (786-0 renal) of over 100 µM. It also gave a TGI (786-0 renal) of over 100 µM, a GI50 (DU-145 prostate) of over 100 µM and a TGI (DU-145 prostate) of over 100 µM. It also gave a GI50 (U251 CNS) of over 100 µM, a TGI (U251 CNS) of over 100 µM and a GI50 (UACC-62 melanoma) of over 100 µM. For the same compound, the TGI (UACC-62 melanoma) was over 100 µM, the GI50 (HL-60(TB) leukemia) was over 100 µM and the TGI (HL-60(TB) leukemia) was over 100 µM. It also gave a GI50 (SW-620 colon) of over 100 µM, a TGI (SW-620 colon) of over 100 µM and a GI50 (PC-3 prostate) of over 100 µM. For the same compound, the TGI (PC-3 prostate) was over 100 µM, the GI50 (A498 renal) was over 100 µM and the TGI (A498 renal) was over 100 µM. The GI50 (A549 NSCLC) was over 100 µM, the TGI (A549 NSCLC) was over 100 µM and the GI50 (MDA-MB-435) was over 100 µM. It also gave a TGI (MDA-MB-435) of over 100 µM, a GI50 (HCT-15 colon) of over 100 µM and a TGI (HCT-15 colon) of over 100 µM. The GI50 (UO-31 renal) was over 100 µM, the TGI (UO-31 renal) was over 100 µM and the GI50 (IGROV1 ovarian) was over 100 µM. It also gave a TGI (IGROV1 ovarian) of over 100 µM, a GI50 (OVCAR-4 ovarian) of over 100 µM and a TGI (OVCAR-4 ovarian) of over 100 µM. It also gave a GI50 (M14 melanoma) of over 100 µM, a TGI (M14 melanoma) of over 100 µM and a GI50 (SR leukemia) of over 100 µM. For the same compound, the TGI (SR leukemia) was over 100 µM, the GI50 (OVCAR-8 ovarian) was over 100 µM and the TGI (OVCAR-8 ovarian) was over 100 µM. It also gave a GI50 (MOLT-4 leukemia) of over 100 µM, a TGI (MOLT-4 leukemia) of over 100 µM and a GI50 (NCI-H226 lung) of over 100 µM. For the same compound, the TGI (NCI-H226 lung) was over 100 µM, the GI50 (ACHN renal) was over 100 µM and the TGI (ACHN renal) was over 100 µM. The GI50 (K-562 leukemia) was over 100 µM, the TGI (K-562 leukemia) was over 100 µM and the GI50 (RXF 393 renal) was over 100 µM. The TGI (RXF 393 renal) was over 100 µM, the GI50 (HT29 colon) was over 100 µM and the TGI (HT29 colon) was over 100 µM. For the same compound, the GI50 (COLO 205 colon) was over 100 µM, the TGI (COLO 205 colon) was over 100 µM and the GI50 (CAKI-1 renal) was over 100 µM. It also gave a TGI (CAKI-1 renal) of over 100 µM, a GI50 (SF-539 CNS) of over 100 µM and a TGI (SF-539 CNS) of over 100 µM. It also gave a GI50 (TK-10 renal) of over 100 µM, a TGI (TK-10 renal) of over 100 µM and a GI50 (UACC-257 melanoma) of over 100 µM. It also gave a TGI (UACC-257 melanoma) of over 100 µM, a GI50 (SK-MEL-28 melanoma) of over 100 µM and a TGI (SK-MEL-28 melanoma) of over 100 µM. The GI50 (SNB-19 CNS) was over 100 µM, the TGI (SNB-19 CNS) was over 100 µM and the GI50 (NCI-H322M lung) was over 100 µM. It also gave a TGI (NCI-H322M lung) of over 100 µM, a GI50 (SK-OV-3 ovarian) of over 100 µM and a TGI (SK-OV-3 ovarian) of over 100 µM. For the same compound, the GI50 (HCT-116 colon) was over 100 µM, the TGI (HCT-116 colon) was over 100 µM and the GI50 (NCI-H460 lung) was over 100 µM. It also gave a TGI (NCI-H460 lung) of over 100 µM, a GI50 (SK-MEL-5 melanoma) of over 100 µM and a TGI (SK-MEL-5 melanoma) of over 100 µM. For the same compound, the GI50 (SF-295 CNS) was over 100 µM, the TGI (SF-295 CNS) was over 100 µM and the GI50 (LOX IMVI melanoma) was over 100 µM. For the same compound, the TGI (LOX IMVI melanoma) was over 100 µM, the GI50 (HOP-92 NSCLC) was over 100 µM and the TGI (HOP-92 NSCLC) was over 100 µM. For the same compound, the GI50 (SNB-75 CNS) was over 100 µM, the TGI (SNB-75 CNS) was over 100 µM and the GI50 (MDA-N) was over 100 µM. It also gave a TGI (MDA-N) of over 100 µM, a GI50 (EKVX NSCLC) of over 100 µM and a TGI (EKVX NSCLC) of over 100 µM. It also gave a GI50 (MCF7 breast) of over 100 µM, a TGI (MCF7 breast) of over 100 µM and a GI50 (NCI/ADR-RES ovarian) of over 100 µM. For the same compound, the TGI (NCI/ADR-RES ovarian) was over 100 µM, the GI50 (MDA-MB-231 breast) was over 100 µM and the TGI (MDA-MB-231 breast) was over 100 µM. The GI50 (SK-MEL-2 melanoma) was over 100 µM, the TGI (SK-MEL-2 melanoma) was over 100 µM and the GI50 (OVCAR-5 ovarian) was over 100 µM. The TGI (OVCAR-5 ovarian) was over 100 µM, the GI50 (SN12C renal) was over 100 µM and the TGI (SN12C renal) was over 100 µM. The GI50 (KM12 colon) was over 100 µM, the TGI (KM12 colon) was over 100 µM and the GI50 (CCRF-CEM leukemia) was over 100 µM. The TGI (CCRF-CEM leukemia) was over 100 µM.
